# Biological target: Cdk9/cyclinT1 (Homo sapiens, UniProt P50750)
# Amino acid sequences for entries named in this document (tags omitted).
# UniProt P50750, whole entry: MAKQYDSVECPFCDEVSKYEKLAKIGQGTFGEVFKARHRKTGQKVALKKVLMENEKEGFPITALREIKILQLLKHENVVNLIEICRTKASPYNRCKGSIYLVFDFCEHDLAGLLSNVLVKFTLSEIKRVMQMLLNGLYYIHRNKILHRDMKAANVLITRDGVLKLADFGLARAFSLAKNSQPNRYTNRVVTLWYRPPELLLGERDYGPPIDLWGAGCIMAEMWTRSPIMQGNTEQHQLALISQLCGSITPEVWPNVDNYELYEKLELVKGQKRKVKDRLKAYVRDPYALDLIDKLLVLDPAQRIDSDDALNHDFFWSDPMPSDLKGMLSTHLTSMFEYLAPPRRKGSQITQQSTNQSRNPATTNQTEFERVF
# Assay: Cdk9/cyclinT1 IMAP protocol (fluorescence polarization)
# Settings: IC-50, CDK9; lower limit of assay 0.0005 micromolar
row,SMILES,IC50 [nM]
1,"COC[C@H](C)N[C@H]1CC[C@H](Nc2cc(-c3cccc(NCC4CCOC(C)(C)C4)n3)c(Cl)cn2)CC1 (stereo partly drawn) [Compound 456, 5′-chloro-N6-((2,2-dimethyltetrahydro-2H-pyran-4-yl)methyl)-N2′-(trans-4-(((S)-1-methoxypropan-2-yl)amino)cyclohexyl)-[2,4′-bipyridine]-2′,6-diamine]",3.7
2,"COC[C@H](C)N[C@H]1CC[C@H](Nc2cc(-c3cccc(NC[C@@H]4CCOC(C)(C)C4)n3)c(Cl)cn2)CC1 [Compound 460, 5′-chloro-N6-(((R)-2,2-dimethyltetrahydro-2H-pyran-4-yl)methyl)-N2′-(trans-4-(((S)-1-methoxypropan-2-yl)amino)cyclohexyl)-[2,4′-bipyridine]-2′,6-diamine]",4.3
3,"COC[C@H](C)N[C@H]1CC[C@H](Nc2cc(-c3cccc(NC[C@H]4CCOC(C)(C)C4)n3)c(Cl)cn2)CC1 [Compound 461, 5′-chloro-N6-(((S)-2,2-dimethyltetrahydro-2H-pyran-4-yl)methyl)-N2′-(trans-4-(((S)-1-methoxypropan-2-yl)amino)cyclohexyl)-[2,4′-bipyridine]-2′,6-diamine]",3.4

# From patent US20130303507A1 (Novartis AG, priority 2011, published 2013)
